For the data set the following is noted: experimental values, compiled.

≈ marks a conversion by molar mass, not a printed value.

For orientation: solubility means the dissolved amount per volume that the medium holds. In the case of `NNP(=S)(NN)c1ccccc1`, the solubility worked out at 37.6 mM (≈ 7600 µg/mL).

These data come from the OPERA property sets (Mansouri et al. 2018).
